System: Normal neonatal human epidermal melanocytes (NHEM 2489)
Test: Melanin production in normal human epidermal melanocytes
Details: 20 μM added every 24 hours, 72 hours, versus DMSO control; visual inspection of lysed cell solution (FIG. 1)

COc1cccc(-c2cc(=O)c3ccccc3o2)c1N [PD98059]
melanin production: significant melanin production
